Results published in patent US20030032203A1, “Small molecule microarrays” (published 2003).

Tested on: A549cells
Assay: PDLAG sandwich test compound array, effects on cell viability and morphology
Details: three concentrations; 32 hours at 37C; blinded observers; ring size increasing with concentration

## O=[As]c1ccccc1 (stereo not shown)
  effect on cell morphology and viability: caused a ring of clearing in the cells
